A short description of this data set: Final pH and average osmolality of API Captisol formulations and API salt solutions. Particulars: Captisol-API HCl salt formulation (70 mg/mL API HCl salt in FB equiv, 1.1 molar equiv Captisol in CapAcid equiv).

SMILES strings stand for the structures.

With `CNC1(c2ccccc2F)CCCCC1=O` (stereo not shown) [Example 2-F-DCK, 2-(2-fluorophenyl)-2-(methylamino)cyclohexan-1-one], the pH was found to be 6.93.

These data come from patent publication US12472201B2, “Complexing agent salt formulations of pharmaceutical compounds” (Bexson Biomedical, Inc., priority 2020, dated 2025).
